Values quoted from earlier work as cited in patent publication US20130267526A1, “HETEROCYCLIC COMPOUNDS AND THEIR USES” (Amgen, Inc., priority 2010, published 2013).

Amino acid sequences for entries named in this document (tags omitted). A change or cut given only in a name is not applied to a line headed by its entry.
UniProt P42338: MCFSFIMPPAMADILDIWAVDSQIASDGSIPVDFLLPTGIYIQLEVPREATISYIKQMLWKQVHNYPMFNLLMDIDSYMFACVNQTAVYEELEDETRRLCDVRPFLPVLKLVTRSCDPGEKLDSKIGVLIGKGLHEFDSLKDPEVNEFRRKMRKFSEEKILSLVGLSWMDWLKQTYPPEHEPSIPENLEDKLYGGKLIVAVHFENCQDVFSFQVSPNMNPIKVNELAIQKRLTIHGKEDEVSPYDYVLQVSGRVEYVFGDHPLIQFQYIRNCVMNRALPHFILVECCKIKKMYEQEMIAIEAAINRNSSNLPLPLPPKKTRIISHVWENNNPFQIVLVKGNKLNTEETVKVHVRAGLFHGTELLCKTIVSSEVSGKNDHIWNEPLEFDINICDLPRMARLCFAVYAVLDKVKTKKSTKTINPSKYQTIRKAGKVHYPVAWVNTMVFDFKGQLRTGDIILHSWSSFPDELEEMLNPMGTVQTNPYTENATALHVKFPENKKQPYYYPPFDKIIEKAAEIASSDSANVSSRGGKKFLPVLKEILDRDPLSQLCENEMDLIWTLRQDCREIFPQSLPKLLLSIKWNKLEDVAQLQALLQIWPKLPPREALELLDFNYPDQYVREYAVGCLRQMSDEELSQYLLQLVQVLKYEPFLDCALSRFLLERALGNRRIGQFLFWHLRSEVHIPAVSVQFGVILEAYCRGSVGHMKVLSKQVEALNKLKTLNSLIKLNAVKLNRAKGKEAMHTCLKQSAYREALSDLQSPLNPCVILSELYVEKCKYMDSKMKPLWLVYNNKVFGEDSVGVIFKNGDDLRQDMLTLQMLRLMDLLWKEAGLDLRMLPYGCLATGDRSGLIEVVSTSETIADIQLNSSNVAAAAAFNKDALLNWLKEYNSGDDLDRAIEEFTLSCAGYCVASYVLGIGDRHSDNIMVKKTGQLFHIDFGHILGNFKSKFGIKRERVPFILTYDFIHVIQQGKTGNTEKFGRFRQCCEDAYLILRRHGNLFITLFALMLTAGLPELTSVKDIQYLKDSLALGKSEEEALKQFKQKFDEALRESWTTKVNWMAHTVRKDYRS

Biological target: p110β (Homo sapiens, UniProt P42338)
Conditions: read-out: potency on beta

- IC50: 7 nM
SMILES: Cc1cc(C(C)Nc2ccccc2)c2nc(N3CCOCC3)cc(=O)n2c1 (stereo not shown) [TGX-221]
